# This is a selection; strong and weak results do not stand in their true shares. Active and inactive are the calls of the source.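 How the source made its calls: active means activation above a cutoff set at the mean over all compounds plus 3 SD (cut at about 18% in these data); inactive means the rest.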
# Amino acid sequences for entries named in this document (tags omitted).
# UniProt P31323, whole entry, looked up: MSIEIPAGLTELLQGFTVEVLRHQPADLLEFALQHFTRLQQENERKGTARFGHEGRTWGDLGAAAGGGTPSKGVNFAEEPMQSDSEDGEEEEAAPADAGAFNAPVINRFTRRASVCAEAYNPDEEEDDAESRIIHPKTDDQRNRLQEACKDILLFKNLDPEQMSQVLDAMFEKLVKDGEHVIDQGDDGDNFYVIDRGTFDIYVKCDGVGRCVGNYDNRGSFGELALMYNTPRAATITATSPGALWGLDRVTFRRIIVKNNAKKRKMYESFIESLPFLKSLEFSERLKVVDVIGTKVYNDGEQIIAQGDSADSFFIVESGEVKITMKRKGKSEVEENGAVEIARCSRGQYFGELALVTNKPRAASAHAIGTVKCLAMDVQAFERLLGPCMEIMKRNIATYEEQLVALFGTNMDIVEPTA
# Molecular target: cAMP-dependent protein kinase catalytic subunit beta (Homo sapiens) + cAMP-dependent protein kinase type II-beta regulatory subunit (Homo sapiens) (UniProt P22694+P31323)
# Test: activators of PKA-R2B holoenzyme, primary screen, biochemical, fluorescence polarization, Cy5-IP20, human (AID 504700);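 further: higher means more holoenzyme dissociation and a rise in polarization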
# Details: PKA-R2B holoenzyme dissociation, at 11.4 µM, active compounds read high, 0% DMSO only, 100% 113 µM cGMP, R2B truncated from residue 108, S112A mutant
row,SMILES,activation
1,CCN(CC)CCCOC(=O)C(O)(c1ccccc1)c1ccccc1,inactive: -4.21%
2,O=[N+]([O-])c1cc([N+](=O)[O-])c(Nc2cccnc2)c([N+](=O)[O-])c1,inactive: -6.97%
3,O=[N+]([O-])c1ccc2c(c1)C=Nc1ccccc1O2,inactive: -7.28%
4,CC(C)(C)c1ccc(OP(C)(=O)Nc2ccc(SC(F)(F)F)cc2)cc1 (stereo unspecified),inactive: 7.09%
5,Cc1cccc(C)c1OP(C)(N)=O (stereo unspecified),inactive: 6.49%
6,COc1ccccc1OP(C)(=O)Nc1ccc(C)cc1 (stereo unspecified),inactive: -5.92%
7,Cc1ccc(NP(C)(=O)Oc2ccccc2)c(C)c1 (stereo unspecified),inactive: -1.27%
8,CCOC(=O)c1ccc(NP(C)(=O)Oc2ccccc2)cc1 (stereo unspecified),inactive: 0.3%
9,Cc1cc(C)cc(OP(C)(N)=O)c1 (stereo unspecified),inactive: 1.86%
10,COc1ccccc1OP(C)(=O)Nc1cc(Cl)ccc1C (stereo unspecified),inactive: 2.42%
11,COc1ccc(OP(C)(=O)Nc2cccc(F)c2)cc1 (stereo unspecified),inactive: 10.4%
12,CP(=S)(Nn1cnnc1)Oc1ccccc1 (stereo unspecified),inactive: -9.13%
13,CP(=O)(Nc1ccccc1Br)Oc1ccccc1 (stereo unspecified),inactive: 2.99%
14,COc1ccccc1OP(C)(=O)Nc1ccccc1 (stereo unspecified),inactive: -7.93%
15,Cc1cccc(C)c1OP(C)(=O)Nc1ccc(SC(F)(F)F)cc1 (stereo unspecified),inactive: -6.87%
16,Cc1ccc(Nc2c([N+](=O)[O-])cc([N+](=O)[O-])cc2[N+](=O)[O-])cc1,inactive: 1.1%
17,CP(=O)(Oc1ccccc1)OC(c1ccccc1)C(F)(F)F (stereo unspecified),inactive: -17.8%
18,CCc1ccc(OP(C)(=O)N2CCN(c3ccc([N+](=O)[O-])cc3)CC2)cc1 (stereo unspecified),inactive: -15.5%
19,CP(=O)(NC(=O)Nc1ccccc1)Oc1ccccc1 (stereo unspecified),inactive: -1.5%
20,Cc1cc(C)cc(OP(C)(=O)Nc2ccc(SC(F)(F)F)cc2)c1 (stereo unspecified),inactive: -4.36%
21,CCOC(=O)c1ccc(NP(C)(=O)Oc2ccc(OC)cc2)cc1 (stereo unspecified),inactive: 0.62%
22,CCOP(C)(=S)SCC(=O)NC(C)C(=O)O (stereo unspecified),inactive: -5.04%
23,CP(=O)(Nc1ccccn1)Oc1ccc(Cl)cc1 (stereo unspecified),inactive: -3.32%

row,SMILES,activation
1,O=[N+]([O-])c1cc([N+](=O)[O-])c(-n2nnc3ccccc32)c([N+](=O)[O-])c1,inactive: -11.7%
2,O=[N+]([O-])c1cc([N+](=O)[O-])c(-c2cnn(-c3ccccc3)c2)c([N+](=O)[O-])c1,inactive: -10.8%
3,Cc1nc2ccc3ccccc3c2s1.O=[N+]([O-])c1cc([N+](=O)[O-])c(O)c([N+](=O)[O-])c1,inactive: 8.2%
4,O=[N+]([O-])c1cc([N+](=O)[O-])c(Nc2nnnn2CCO)c([N+](=O)[O-])c1,inactive: -3.57%
5,CC1=C2N=C(C=C3N=C(C(C)=C4[N-][C@@](C)([C@@H]5N=C1[C@](C)(CCC(=O)NC[C@@H](C)OP(=O)([O-])O[C@H]1[C@@H](O)[C@@H](n6cnc7cc(C)c(C)cc76)O[C@@H]1CO)[C@H]5CC(N)=O)[C@@](C)(CC(N)=O)[C@@H]4CCC(N)=O)[C@@](C)(CC(N)=O)[C@@H]3CCC(N)=O)C(C)(C)[C@@H]2CCC(N)=O.[C-]#N.[Co+3],inactive: -5.85%
6,CCOC(=O)C(CC)C1=NC(C)(C)Cc2ccccc21.O=[N+]([O-])c1cc([N+](=O)[O-])c(O)c([N+](=O)[O-])c1 (stereo unspecified),inactive: -2.67%
7,COc1ccccc1OP(C)(=O)Nc1c(C)cccc1C (stereo unspecified),inactive: -3.25%
8,CN1CCCCC1COC(=O)C1(O)c2ccccc2CCc2ccccc21 (stereo unspecified),inactive: 5.67%
9,CP(=O)(Nc1ccc(SC(F)(F)F)cc1)Oc1ccccc1 (stereo unspecified),inactive: 13.1%
10,CCCOc1ccc(NP(C)(=O)Oc2ccc(Cl)cc2)cc1 (stereo unspecified),inactive: -0.78%
11,O=C(O)c1cccc(Nc2c([N+](=O)[O-])cc([N+](=O)[O-])cc2[N+](=O)[O-])c1,inactive: -0.76%
12,CC1=NCCc2c1[nH]c1ccccc21.O=[N+]([O-])c1cc([N+](=O)[O-])c(O)c([N+](=O)[O-])c1,inactive: -0.96%
13,COc1ccccc1OP(C)(=O)Nc1cccc(Br)c1 (stereo unspecified),inactive: -1.06%
14,CCOC(=O)c1ccc(NP(C)(=O)Oc2cc(C)cc(C)c2)cc1 (stereo unspecified),inactive: 0.35%
15,Cc1cc(C)cc(OP(C)(=O)Nc2ccc(C)cc2C)c1 (stereo unspecified),inactive: 4.34%
16,Cc1ccc(C)c(NP(C)(=O)Oc2ccccc2)c1 (stereo unspecified),inactive: -13.8%
17,CP(=O)(Nc1cccc(Br)c1)Oc1ccccc1 (stereo unspecified),inactive: -11.6%
18,Cc1cc(C)cc(OP(C)(=O)Nc2ccccn2)c1 (stereo unspecified),inactive: -3.24%
19,O=[N+]([O-])c1cc([N+](=O)[O-])c(Nc2ccc(Cl)cc2)c([N+](=O)[O-])c1,inactive: 6.4%
20,CP(=O)(Nc1ccccc1F)Oc1ccccc1 (stereo unspecified),inactive: 5.27%
21,CC(C)c1ccc(OP(C)(=O)Nc2ccc(SC(F)(F)F)cc2)cc1 (stereo unspecified),inactive: -19.7%
22,O=C(OC1CN2CCC1CC2)c1ccc([N+](=O)[O-])cc1 (stereo unspecified),inactive: -3.78%
23,O=C(OCCN1CCN(CCOCc2ccccc2)CC1)C(O)(c1ccccc1)c1ccccc1,inactive: 2.34%

# — PubChem BioAssay AID504700 (The Scripps Research Institute Molecular Screening Center, 2011)
